The values that follow come from ChEMBL document CHEMBL1144993, “Imidazoline binding sites (IBS) profile modulation: key role of the bridge in determining I1-IBS or I2-IBS selectivity within a series of 2-phenoxymethylimidazoline analogues” (J Med Chem, 2003).

By UniProt entry, the sequences of proteins in these tests, tags left out. Where a name states a change or a piece, a line headed by the entry shows the natural chain unless it says otherwise.
UniProt Q9Y2I1: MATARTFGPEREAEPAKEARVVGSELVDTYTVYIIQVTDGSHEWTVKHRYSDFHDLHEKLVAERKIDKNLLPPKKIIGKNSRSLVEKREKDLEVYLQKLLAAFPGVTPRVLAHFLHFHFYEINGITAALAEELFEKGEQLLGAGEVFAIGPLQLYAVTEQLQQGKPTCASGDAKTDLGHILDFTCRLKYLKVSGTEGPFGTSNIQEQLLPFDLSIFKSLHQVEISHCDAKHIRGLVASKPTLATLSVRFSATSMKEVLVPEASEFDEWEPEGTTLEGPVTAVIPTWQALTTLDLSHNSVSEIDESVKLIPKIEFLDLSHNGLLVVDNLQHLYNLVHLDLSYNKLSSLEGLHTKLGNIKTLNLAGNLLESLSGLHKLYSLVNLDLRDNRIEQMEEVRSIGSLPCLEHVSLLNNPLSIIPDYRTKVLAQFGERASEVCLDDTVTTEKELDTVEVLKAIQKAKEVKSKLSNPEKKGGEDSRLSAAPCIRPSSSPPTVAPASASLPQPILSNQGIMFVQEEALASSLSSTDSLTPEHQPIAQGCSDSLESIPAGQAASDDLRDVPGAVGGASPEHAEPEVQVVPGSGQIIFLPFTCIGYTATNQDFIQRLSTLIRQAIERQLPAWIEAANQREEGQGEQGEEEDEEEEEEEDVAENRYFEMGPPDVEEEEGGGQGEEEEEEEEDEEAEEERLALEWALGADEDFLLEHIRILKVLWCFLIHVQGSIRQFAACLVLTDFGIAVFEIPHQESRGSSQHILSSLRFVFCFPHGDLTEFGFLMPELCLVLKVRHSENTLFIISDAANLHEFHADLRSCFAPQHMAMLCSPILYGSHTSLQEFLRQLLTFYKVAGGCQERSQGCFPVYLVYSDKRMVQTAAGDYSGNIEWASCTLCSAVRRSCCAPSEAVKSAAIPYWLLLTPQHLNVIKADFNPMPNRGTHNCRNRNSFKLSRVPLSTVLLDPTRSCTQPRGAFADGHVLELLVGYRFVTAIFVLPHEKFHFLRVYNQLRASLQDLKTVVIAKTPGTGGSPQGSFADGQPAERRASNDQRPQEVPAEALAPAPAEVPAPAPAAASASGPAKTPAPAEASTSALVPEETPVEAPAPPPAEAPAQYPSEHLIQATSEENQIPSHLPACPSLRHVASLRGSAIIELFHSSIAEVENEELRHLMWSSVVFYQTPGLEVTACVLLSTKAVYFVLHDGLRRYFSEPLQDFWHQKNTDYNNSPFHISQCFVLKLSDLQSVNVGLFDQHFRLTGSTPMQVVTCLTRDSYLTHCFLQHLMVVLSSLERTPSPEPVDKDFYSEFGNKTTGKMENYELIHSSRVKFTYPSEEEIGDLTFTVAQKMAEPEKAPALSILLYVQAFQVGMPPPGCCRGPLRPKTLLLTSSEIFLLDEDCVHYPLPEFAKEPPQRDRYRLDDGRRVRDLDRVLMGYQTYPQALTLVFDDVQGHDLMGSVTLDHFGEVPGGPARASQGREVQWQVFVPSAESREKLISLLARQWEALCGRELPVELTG

Assay [1] concerns the target Nischarin (Homo sapiens) (UniProt Q9Y2I1). The experiment in a line: Eudismic ratio of (1S,2S)-(+)-6 to (1R,2R)-(-)-6 for I1-Imidazoline binding site.
Assay [2] shares this target. The experiment in a line: Eudismic ratio of (R)-(-)-8 to (S)-(+)-8 for I1-Imidazoline binding site.

`c1ccc([C@H]2C[C@@H]2C2=NCCN2)cc1`: the Ratio at Nischarin (Homo sapiens) [1] is 29.

With `C[C@H](CC1=NCCN1)c1ccccc1`, the Ratio at Nischarin (Homo sapiens) [2] was 12.
